Protein sequences, listed by entry. Tags and fused reporters are not part of them. Chains listed by the source or under a name are the forms on record and can include a tag or linker.
UniProt Q9Y233, as listed by the source: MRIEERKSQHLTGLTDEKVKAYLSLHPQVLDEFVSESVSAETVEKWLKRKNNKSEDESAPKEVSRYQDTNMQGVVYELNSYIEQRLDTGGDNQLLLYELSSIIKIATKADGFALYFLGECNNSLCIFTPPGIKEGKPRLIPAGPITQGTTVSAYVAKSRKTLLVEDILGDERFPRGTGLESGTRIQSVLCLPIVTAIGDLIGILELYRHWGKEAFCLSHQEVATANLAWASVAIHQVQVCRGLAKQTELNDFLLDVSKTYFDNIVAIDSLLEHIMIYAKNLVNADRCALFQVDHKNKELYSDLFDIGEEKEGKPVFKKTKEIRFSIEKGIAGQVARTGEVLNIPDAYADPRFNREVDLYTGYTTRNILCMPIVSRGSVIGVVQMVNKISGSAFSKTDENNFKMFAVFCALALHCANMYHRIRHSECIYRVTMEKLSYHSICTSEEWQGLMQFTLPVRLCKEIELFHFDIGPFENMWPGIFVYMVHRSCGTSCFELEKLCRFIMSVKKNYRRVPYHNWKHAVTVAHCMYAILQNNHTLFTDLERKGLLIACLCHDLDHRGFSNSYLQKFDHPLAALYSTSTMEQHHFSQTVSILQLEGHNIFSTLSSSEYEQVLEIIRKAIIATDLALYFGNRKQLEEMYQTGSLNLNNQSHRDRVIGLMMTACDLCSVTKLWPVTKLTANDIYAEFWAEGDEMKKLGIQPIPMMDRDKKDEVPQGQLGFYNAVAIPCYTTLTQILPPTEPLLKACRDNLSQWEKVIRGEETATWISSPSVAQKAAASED

In BindingDB's records for doi:10.1007/s10822-022-00478-x (Roche Innovation Center Basel, F. Hoffmann-La Roche Ltd., 2022):

Target: cAMP and cAMP-inhibited cGMP 3',5'-cyclic phosphodiesterase 10A (Homo sapiens, UniProt Q9Y233)
Test: PDE10A assay
Protocol: Compounds were diluted in 20 mM HEPES/NaOH (pH 7.5), 10 mM MgCl2 and 0.05 mg/ml bovine serum albumin. A fixed amount of 2 ng/well human PDE10A enzyme was added and incubated at room temperature for 15 min under agitation. The reaction was started by the addition of the substrate cocktail [3H]cGMP (Perkin Elmer NET337001MC, S.A. 13.5 Ci/mmol) / cGMP at a final concentration of 50 nM and incubated for an additional 15 min. The reaction was stopped by the addition of 0.5 mg/well of Y-Si SPA beads. The plates were shaken for 1 h, followed by a brief centrifugation (170 g for 1 min). The radioactivity bound to the beads was estimated using a TopCount (Perkin-Elmer). For the determination of IC50 values, a four parameters logistics equation was used. pIC50 is defined as − log10(IC50).

CC(C)(O)CNC(=O)c1c(F)cccc1NC(=O)c1nc(C2CC2)cnc1Nc1cncnc1 [US8703768, 310]
IC50: 9.14 nM
